Amino acid sequences for entries named in this document (tags omitted).
UniProt P41143, whole entry: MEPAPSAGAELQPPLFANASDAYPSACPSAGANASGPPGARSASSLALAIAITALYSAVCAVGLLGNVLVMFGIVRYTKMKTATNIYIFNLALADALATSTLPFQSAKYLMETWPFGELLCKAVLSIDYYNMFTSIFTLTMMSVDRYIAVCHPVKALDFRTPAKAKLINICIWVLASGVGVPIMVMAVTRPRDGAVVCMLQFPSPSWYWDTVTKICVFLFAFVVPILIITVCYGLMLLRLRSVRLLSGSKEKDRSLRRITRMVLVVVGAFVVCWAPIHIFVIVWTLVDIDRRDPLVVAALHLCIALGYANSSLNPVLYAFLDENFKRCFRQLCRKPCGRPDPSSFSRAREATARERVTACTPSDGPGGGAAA

In BindingDB's records for doi:10.1021/jm00087a004 (Harvard Medical School, 1992):

Target: Delta-type opioid receptor (Homo sapiens, UniProt P41143)
Assay: Binding affinity towards Opioid receptor delta 1
In short: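 Calf frontal cortex membranes with [3H]DPDPE 1 nM. Samples filtered over glass fiber after incubation. Nonspecific binding taken with levallorphan. Triplicates, experiment repeated three times. Ki = IC50/(1+[radioligand]/KD). Mean ± SEM.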

Q: How did the Ki turn out when `C[C@@H]1C2CCCC1(c1cccc(O)c1)CCN2C` (stereo partly specified) was run?
A: Its Ki is over 500 nM.
